Consider one compound from ChEMBL document CHEMBL1129539, “2,4-diamino-5-deaza-6-substituted pyrido[2,3-d]pyrimidine antifolates as potent and selective nonclassical inhibitors of dihydrofolate reductases” (J Med Chem, 1996).

The assay concerns the target T1, Bifunctional dihydrofolate reductase-thymidylate synthase (Toxoplasma gondii, UniProt Q07422).
T1 sequence (Q07422 whole entry): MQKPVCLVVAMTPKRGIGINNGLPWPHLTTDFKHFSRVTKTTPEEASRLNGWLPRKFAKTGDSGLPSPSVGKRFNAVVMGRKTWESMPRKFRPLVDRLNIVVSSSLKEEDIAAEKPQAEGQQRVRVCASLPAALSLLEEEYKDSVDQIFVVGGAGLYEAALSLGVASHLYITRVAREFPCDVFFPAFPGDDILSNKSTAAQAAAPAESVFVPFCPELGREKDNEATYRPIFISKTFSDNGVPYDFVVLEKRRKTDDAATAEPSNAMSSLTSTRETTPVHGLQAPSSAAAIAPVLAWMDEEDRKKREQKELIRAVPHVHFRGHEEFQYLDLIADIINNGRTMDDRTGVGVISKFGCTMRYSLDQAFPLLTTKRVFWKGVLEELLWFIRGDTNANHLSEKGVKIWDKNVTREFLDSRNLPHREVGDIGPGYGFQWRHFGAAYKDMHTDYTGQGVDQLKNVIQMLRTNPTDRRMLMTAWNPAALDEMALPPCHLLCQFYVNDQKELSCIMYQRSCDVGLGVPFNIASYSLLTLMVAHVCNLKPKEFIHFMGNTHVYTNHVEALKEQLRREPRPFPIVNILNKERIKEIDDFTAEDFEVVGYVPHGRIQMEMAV

Each structure is given as a SMILES string.

Usually IC50 stands for the concentration needed to halve the response being measured. Read a low IC50 as higher potency. `COc1ccc(OC)c(CN(C)c2cnc3nc(N)nc(N)c3c2)c1` came in with an IC50 of 28 nM.
